# Tests used:
# The chains behind the UniProt entries cited, without tags or fusion partners. Where a name states a change or a piece, a line headed by the entry shows the natural chain unless it says otherwise.
# UniProt P46663: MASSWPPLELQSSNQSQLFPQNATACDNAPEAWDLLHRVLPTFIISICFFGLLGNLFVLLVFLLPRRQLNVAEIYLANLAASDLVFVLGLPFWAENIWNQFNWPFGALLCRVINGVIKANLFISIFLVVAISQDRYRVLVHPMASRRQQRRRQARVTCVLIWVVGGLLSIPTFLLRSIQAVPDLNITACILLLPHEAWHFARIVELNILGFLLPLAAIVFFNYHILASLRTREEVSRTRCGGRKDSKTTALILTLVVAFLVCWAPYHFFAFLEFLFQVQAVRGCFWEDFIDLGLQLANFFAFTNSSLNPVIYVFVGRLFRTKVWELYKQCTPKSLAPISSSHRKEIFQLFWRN
# UniProt P97583: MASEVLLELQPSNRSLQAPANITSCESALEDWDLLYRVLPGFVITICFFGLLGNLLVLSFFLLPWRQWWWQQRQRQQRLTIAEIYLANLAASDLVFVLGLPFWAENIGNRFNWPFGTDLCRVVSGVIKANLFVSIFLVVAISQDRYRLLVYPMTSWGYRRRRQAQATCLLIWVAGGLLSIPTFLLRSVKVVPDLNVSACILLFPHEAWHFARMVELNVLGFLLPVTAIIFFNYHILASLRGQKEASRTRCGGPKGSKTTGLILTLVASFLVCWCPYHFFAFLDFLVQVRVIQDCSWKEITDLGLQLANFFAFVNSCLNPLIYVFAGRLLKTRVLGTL
# UniProt P35372, whole entry, looked up: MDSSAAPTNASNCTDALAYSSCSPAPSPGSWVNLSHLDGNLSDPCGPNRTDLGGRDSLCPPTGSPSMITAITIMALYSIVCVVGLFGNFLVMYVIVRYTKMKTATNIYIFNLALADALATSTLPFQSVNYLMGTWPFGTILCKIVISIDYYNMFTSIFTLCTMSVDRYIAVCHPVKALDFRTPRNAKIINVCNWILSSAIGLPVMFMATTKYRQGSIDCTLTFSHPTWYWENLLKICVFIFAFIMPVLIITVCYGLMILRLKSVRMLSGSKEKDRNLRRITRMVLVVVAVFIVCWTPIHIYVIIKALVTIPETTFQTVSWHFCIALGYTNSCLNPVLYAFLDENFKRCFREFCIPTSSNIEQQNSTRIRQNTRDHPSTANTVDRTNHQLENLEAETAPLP
# [1] = molecular target: human B1R receptor (hB1R) (Homo sapiens, UniProt P46663); assay: FLIPR Ca2+ assay on hB1R-transfected CHO K1 cells, antagonistic action; format: cell-based; details: 10 μM test substance; agonist Lys-Des-Arg9-bradykinin 0.5 nM; % of maximum achievable inhibition
# [2] = molecular target: B1R receptor of the rat (rB1R) (Rattus norvegicus, UniProt P97583); assay: FLIPR Ca2+ assay on rB1R-transfected CHO K1 cells, antagonistic action; format: cell-based; details: 10 μM test substance; agonist Des-Arg9-bradykinin 100 nM; % of maximum achievable inhibition
# [3] = molecular target: human μ opiate receptor (Homo sapiens, UniProt P35372); assay: [3H]-naloxone displacement, SPA, membranes of CHO-K1 cells; details: 1 μM test substance; inhibition of specific binding of 1 nmol/l [3H]-naloxone
Structure (SMILES),hB1R [10 μM] % inhibition [1],rB1R [10 μM] % inhibition [2],μ opioid receptor [1 μM] % inhibition [3]
CCN(CCOCC(=O)NC1CCC(CCc2ccccc2)(N(C)C)CC1)S(=O)(=O)c1c(C)cc(OC)c(C)c1C (centres unmarked),73%,99%,61%
CN(C)C1(CCc2ccccc2)CCC(NC(=O)COCCN(C)S(=O)(=O)c2c(Cl)cc(Cl)cc2Cl)CC1 (centres unmarked),96%,66%,69%
CN(C)C1(CCc2ccccc2)CCC(NC(=O)COCCN(C)S(=O)(=O)c2c(Cl)cccc2Cl)CC1 (centres unmarked),95%,84%,60%
CN(C)C1(CCc2ccccc2)CCC(NC(=O)COCCN(C)S(=O)(=O)c2ccc(Cl)cc2Cl)CC1 (centres unmarked),84%,66%,66%
CN(C)C1(CCc2ccccc2)CCC(NC(=O)COCCN(C)S(=O)(=O)c2cccc(C(F)(F)F)c2)CC1 (centres unmarked),50%,29%,35%
CN(CCC1CCC(CCc2ccccc2)(N2CCCC2)CC1)C(=O)CC1CCCCN1S(=O)(=O)c1cccc(C(F)(F)F)c1 (centres unmarked),102%,101%,24%
COc1ccc(S(=O)(=O)N2CCCCC2COCC(=O)NC2CCC(CCc3ccccc3)(N(C)C)CC2)cc1 (centres unmarked),48%,104%,64%
COc1ccc(S(=O)(=O)N2CCCCC2COCC(=O)NC2CCC(Cc3ccccc3C)(N(C)C)CC2)cc1 (centres unmarked),43%,100%,37%
COc1ccc(S(=O)(=O)N2CCc3ccccc3C2CC(=O)NC2CCC(CCc3ccccc3)(N(C)C)CC2)cc1 (centres unmarked),98%,102%,54%
Cc1cc(C)c(S(=O)(=O)N(C)CCOCC(=O)NC2CCC(CCc3ccccc3)(N(C)C)CC2)c(C)c1 (centres unmarked),93%,63%,51%
"COc1cc(C)c(S(=O)(=O)N(C)CCOCC(=O)NCC2CCC(Cc3ccccc3)(N3CCOCC3)CC2)c(C)c1 (centres unmarked) [Compound 188, N-((4-benzyl-4-morpholinocyclohexyl)methyl)-2-(2-(4-methoxy-N,2,6-trimethylphenylsulfonamido)ethoxy)acetamide]",–,–,13%
"CN(CCOCC(=O)NC1CCC(Cc2ccccc2)(N2CCCC2)CC1)S(=O)(=O)c1c(Cl)cc(Cl)cc1Cl (centres unmarked) [Compound 189, N-(4-benzyl-4-(pyrrolidin-1-yl)cyclohexyl)-2-(2-(2,4,6-trichloro-N-methylphenylsulfonamido)ethoxy)acetamide]",–,–,54%
"COc1cc(C)c(S(=O)(=O)N2CCCC(OCC(=O)NC3CCC(Cc4ccccc4)(N4CCOCC4)CC3)C2)c(C)c1 (centres unmarked) [Compound 190, N-(4-benzyl-4-morpholinocyclohexyl)-2-(1-(4-methoxy-2,6-dimethylphenylsulfonyl)piperidin-3-yloxy)acetamide]",–,–,36%
"CN(CCOCC(=O)NC1CCC(c2ccccc2)(N2CCCC2)CC1)S(=O)(=O)c1c(Cl)cc(Cl)cc1Cl (centres unmarked) [Compound 191, N-(4-phenyl-4-(pyrrolidin-1-yl)cyclohexyl)-2-(2-(2,4,6-trichloro-N-methylphenylsulfonamido)ethoxy)acetamide]",–,–,90%
"CN(CCOCC(=O)NC1CCC(Cc2ccccc2)(N2CCCC2)CC1)S(=O)(=O)c1ccc(Cl)cc1Cl (centres unmarked) [Compound 193, N-(4-benzyl-4-(pyrrolidin-1-yl)cyclohexyl)-2-(2-(2,4-dichloro-N-methylphenylsulfonamido)ethoxy)acetamide]",–,–,56%
"O=C(COC1CCCN(S(=O)(=O)c2c(Cl)cc(Cl)cc2Cl)C1)NC1CCC(c2ccccc2)(N2CCCC2)CC1 (centres unmarked) [Compound 194, N-(4-phenyl-4-(pyrrolidin-1-yl)cyclohexyl)-2-(1-(2,4,6-trichlorophenylsulfonyl)piperidin-3-yloxy)acetamide]",–,–,95%
"CN1CCN(C2(CCc3ccccc3)CCC(CN(C)C(=O)COCCN(C)S(=O)(=O)c3c(Cl)cc(Cl)cc3Cl)CC2)CC1 (centres unmarked) [Compound 195, N-methyl-N-((4-(4-methylpiperazin-1-yl)-4-phenethylcyclohexyl)methyl)-2-(2-(2,4,6-trichloro-N-methylphenylsulfonamido)ethoxy)acetamide]",–,–,17%
"COc1cc(C)c(S(=O)(=O)N(C)CCOCC(=O)N2CCC(N)(c3ccccc3)CC2)c(C)c1 [Compound 196, N-(2-(2-(4-Amino-4-phenylpiperidin-1-yl)-2-oxoethoxy)ethyl)-4-methoxy-N,2,6-trimethylbenzenesulfonamide]",–,–,15%
"COc1cc(C)c(S(=O)(=O)N(C)CCOCC(=O)N2CCC(Cc3ccccc3)(N3CCN(C)CC3)C2)c(C)c1 (centres unmarked) [Compound 197, N-(2-(2-(3-benzyl-3-(4-methylpiperazin-1-yl)pyrrolidin-1-yl)-2-oxoethoxy)ethyl)-4-methoxy-N,2,6-trimethylbenzenesulfonamide]",–,–,13%
"CN(C)C1(c2ccccc2)CCC(NC(=O)COC2CCN(S(=O)(=O)c3c(Cl)cc(Cl)cc3Cl)C2)CC1 (centres unmarked) [Compound 198, N-(4-(dimethylamino)-4-phenylcyclohexyl)-2-(1-(2,4,6-trichlorophenylsulfonyl)pyrrolidin-3-yloxy)acetamide]",–,–,100%
"CN(C)C1(c2ccccc2)CCC(NC(=O)COCCN(C)S(=O)(=O)c2c(Cl)cc(Cl)cc2Cl)CC1 (centres unmarked) [Compound 199, N-(4-(dimethylamino)-4-phenylcyclohexyl)-2-(2-(2,4,6-trichloro-N-methylphenylsulfonamido)ethoxy)acetamide]",–,–,100%
"COc1cc(C)c(S(=O)(=O)N2CCCC[C@H]2COCC(=O)N(C)CCC2CCC(c3ccccc3)(N3CCCC3)CC2)c(C)c1 (stereo partly drawn) [Compound 200, (S)-2-((1-(4-methoxy-2,6-dimethylphenylsulfonyl)piperidin-2-yl)methoxy)-N-methyl-N-(2-(4-phenyl-4-(pyrrolidin-1-yl)cyclohexyl)ethyl)acetamide]",–,–,75%
"COc1cc(C)c(S(=O)(=O)N2CCCC[C@H]2COCC(=O)N(C)CCC2CCC(c3ccccc3)(N3CCC3)CC2)c(C)c1 (stereo partly drawn) [Compound 201, (S)-N-(2-(4-(azetidin-1-yl)-4-phenylcyclohexyl)ethyl)-2-((1-(4-methoxy-2,6-dimethylphenylsulfonyl)piperidin-2-yl)methoxy)-N-methylacetamide]",–,–,81%
"COc1cc(C)c(S(=O)(=O)N2CCCCC2COCC(=O)N(C)CCCC2CCC(c3ccccc3)(N(C)C)CC2)c(C)c1 (centres unmarked) [Compound 203, N-(3-(4-(dimethylamino)-4-phenylcyclohexyl)propyl)-2-((1-(4-methoxy-2,6-dimethylphenylsulfonyl)piperidin-2-yl)methoxy)-N-methylacetamide]",–,–,80%
"COc1cc(C)c(S(=O)(=O)N2CCCCC2COCC(=O)N(C)CCCC2CCC(c3cccc(F)c3)(N3CCCC3)CC2)c(C)c1 (centres unmarked) [Compound 204, N-(3-(4-(3-fluorophenyl)-4-(pyrrolidin-1-yl)cyclohexyl)propyl)-2-((1-(4-methoxy-2,6-dimethylphenylsulfonyl)piperidin-2-yl)methoxy)-N-methylacetamide]",–,–,59%
"COc1cc(C)c(S(=O)(=O)N2CCCCC2COCC(=O)N(C)CCCC2CCC(c3ccccc3)(N3CCC3)CC2)c(C)c1 (centres unmarked) [Compound 205, N-(3-(4-(azetidin-1-yl)-4-phenylcyclohexyl)propyl)-2-((1-(4-methoxy-2,6-dimethylphenylsulfonyl)piperidin-2-yl)methoxy)-N-methylacetamide]",–,–,77%
"COc1cc(C)c(S(=O)(=O)N(C)CCOCC(=O)N2CCC(c3ccncc3)(N(C)C)CC2)c(C)c1 [Compound 206, N-(2-(2-(4-(dimethylamino)-4-(pyridin-4-yl)piperidin-1-yl)-2-oxoethoxy)ethyl)-4-methoxy-N,2,6-trimethylbenzenesulfonamide]",–,–,4%
"COc1cc(C)c(S(=O)(=O)N(C)CCOCC(=O)N(C)CCC2CCC(c3cccnc3)(N(C)C)CC2)c(C)c1 (centres unmarked) [Compound 207, N-(2-(4-(Dimethylamino)-4-(pyridin-3-yl)cyclohexyl)ethyl)-2-(2-(4-methoxy-N,2,6-trimethylphenylsulfonamido)ethoxy)-N-methylacetamide]",–,–,96%
"COc1cc(C)c(S(=O)(=O)N(C)CCOCC(=O)N2CCC(c3cccnc3)(N(C)C)CC2)c(C)c1 [Compound 208, N-(2-(2-(4-(Dimethylamino)-4-(pyridin-3-yl)piperidin-1-yl)-2-oxoethoxy)ethyl)-4-methoxy-N,2,6-trimethylbenzenesulfonamide]",–,–,30%
"CNC1(c2ccncc2)CCN(C(=O)COCCN(C)S(=O)(=O)c2c(C)cc(OC)cc2C)CC1 [Compound 209, 4-Methoxy-N,2,6-trimethyl-N-(2-(2-(4-(methylamino)-4-(pyridin-4-yl)piperidin-1-yl)-2-oxoethoxy)ethyl)benzenesulfonamide]",–,–,17%

# From patent publication US20090253669A1, “Substituted Sulfonamide Compounds” (GRUENENTHAL GmbH, priority 2008, published 2009)
